From US10441654B2 (priority 2014, dated 2019)

System: SNB75 cells
Assay: Alamar blue viability assay in SNB75 cells
Type: cell-based, human
Settings: read-out: EC50 of SMC therapy; SNB75, with low dose of VSVΔ51 (0.1 MOI)

Compound `CN[C@@H](C)C(=O)N[C@H](C(=O)N1CCC[C@H]1c1nc(C(=O)c2ccc(F)cc2)cs1)C1CCCCC1` [LCL161] has an EC50 of 21.9 nM.
